MITF TRPM1 HTS: increases MITF-driven TRPM1 promoter luciferase signal | hit rate 0.75% among 300,000 | SK-MEL-5 TRPM1-promoter luciferase, 24 h; % of positive control, neutral wells = 0 | AID 588334 | activation, % at 12.5 µM;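 active = mean activation of at least 80% with every replicate also reaching 80%; inconclusive = mean reaches 80% but some replicate falls short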
Yeast UUG start: modulators of yeast start codon fidelity, primary screen, whole organism, S. cerevisiae, single point, plate reader; S. cerevisiae UUG-firefly luciferase reporter, luminescence/redox ratio; activity score, % at 18.7 µM; actives 0.13% (n = 350,000); AID 602363, 2012;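 active = replicate mean at a twofold rise or more, about +100% in these data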;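 also: firefly luciferase made from a UUG start codon reports start codon fidelity; reporter light over untreated wells divided by growth signal over untreated wells; some hits fall short of that in this replicate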
Wnt act: Wnt/beta-catenin pathway activation | Wnt/beta-catenin reporter cell assay, activator, plate reader | activation, % at 9.35 µM | hit rate 1.2% among 300,000; in the data active = activation above about 30%, passing the limit was not always enough; inconclusive = no clear call, values can overlap the other calls
PGC1a acetyl inh: modulators of PGC1a acetylation; U2OS PGC1a acetylation, AlphaScreen anti-acetyl-lysine; with virally co-expressed GCN5 acetyltransferase; inhibition, % at 15.6 µM; hit rate 0.17% among 350,000; AID 651687;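 active = every replicate shows inhibition of at least 40%; inconclusive = mean inhibition at least 40% but some replicate below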
TRPM1 prom inh: MITF TRPM1 promoter inhibition in SK-MEL-5 cells | SK-MEL-5 TRPM1 promoter luciferase, 24 h | inhibition, % at 12.5 µM | hit rate 0.83% among 330,000;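 active = mean inhibition across replicates of 60% or more, whatever share of single replicates reaches that level; inconclusive = some that reach 60%, reason not given; inactive = mean inhibition across replicates below 60%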
miR-122 sensor: blocks miR-122 activity in Huh7 sensor cells. hit rate 0.3% among 340,000. activation (reporter increase), % at 12.5 µM. Huh7 miR-122 Renilla luciferase sensor, 48 h; neutral wells = 0, positive control = 100. AID 602342;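 active = mean replicate activation score at least 90 and every replicate individually at or above 90; inconclusive = only one of the two criteria met; inactive = neither criterion met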;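 note: higher luciferase means less miR-122 activity so hits act as miR-122 inhibitors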
Hits are given with their value; - = inactive; ? = inconclusive; . = no result given. Most compounds without a hit are left out; they make up all but 2.1% or so of the library.

SMILES	MITF TRPM1 HTS	Yeast UUG start	Wnt act	PGC1a acetyl inh	TRPM1 prom inh	miR-122 sensor
C[C@H](CO)N1C[C@H](C)[C@@H](CN(C)C(=O)Cc2ccccc2)OCCCC[C@H](C)Oc2ccc(NC(=O)CCC(F)(F)F)cc2C1=O	.	-	.	-	.	-
O=C(NCCNCc1ccccc1)c1ccco1	-	-	-	-	-	-
CCc1ccc(CNCCNC(=O)c2ccco2)cc1	-	-	42.3	-	-	-
C[C@@H]1CN([C@@H](C)CO)C(=O)c2cccc(NC(=O)C3CCOCC3)c2O[C@@H]1CN(C)S(=O)(=O)c1ccccc1	.	-	.	-	.	-
Cc1ccc(-c2csc(CC(N)=O)n2)cc1	-	-	-	-	-	-
N/C(Cc1nc(-c2ccc(Cl)cc2)cs1)=N/O	.	.	36.9	-	-	.
C[C@@H]1CN([C@H](C)CO)C(=O)Cc2cc(NS(=O)(=O)c3ccc(Cl)cc3)ccc2O[C@@H]1CN(C)Cc1ccc(Cl)c(Cl)c1	.	-	.	-	.	-
CCc1ccc(C(=O)CCC2CCCCC2=O)cc1 (stereo unspecified)	88.5	-	.	-	-	-
CC(C)c1nnc(NC(=O)c2nc(S(=O)(=O)Cc3ccccc3)ncc2Cl)s1	-	-	-	.	82.6	-
CC(C)c1nnc(NC(=O)CCc2ccccc2)s1	-	-	-	-	-	-
CCCc1nnc(NC(=O)c2nc(S(=O)(=O)Cc3ccc(C)cc3)ncc2Cl)s1	-	-	-	.	69.2	-
CSc1ncc(Cl)c(C(=O)Nc2nnc(SC)s2)n1	-	-	.	-	-	-
CSc1nnc(NC(=O)c2nc(S(=O)(=O)Cc3ccccc3)ncc2Cl)s1	-	-	-	-	67.6	-
Cc1ccc(-c2c(C)sc(=NC(=O)c3ccco3)n2C)cc1	100.2	.	.	.	-	-
C[C@@H]1CN([C@@H](C)CO)C(=O)c2cccc(NC(=O)Nc3ccccc3)c2O[C@H]1CN(C)S(C)(=O)=O	.	-	.	-	.	-
O=C(O)c1ccc(S(=O)(=O)NN=Cc2c[nH]c3ccccc23)cc1	.	.	-	.	.	.
Cc1ccc(S(=O)(=O)N/N=C/c2c[nH]c3ccccc23)cc1	-	-	-	104.5	-	-
COc1ccc(-c2[nH]ncc2CNC(C)c2ccccc2Cl)cc1F (stereo unspecified)	-	.	43.3	-	-	-
COc1ccc(-c2[nH]ncc2CN(C)CCN2CCOCC2)cc1F	-	.	-	-	-	.
COc1ccc(-c2[nH]ncc2CN(C)C(C)c2ccon2)cc1F (stereo unspecified)	-	.	-	79.8	-	-
O=C(C[C@H]1C=C[C@@H](NS(=O)(=O)c2ccc(F)cc2)[C@@H](CO)O1)NCc1ccncn1	.	-	.	-	.	-
COc1ccc(N=C2S/C(=C\c3ccc(Cl)c([N+](=O)[O-])c3)C(=O)N2CCN(C)C)cc1	-	-	-	-	-	-
CCN(CC)CCN1C(=O)/C(=C\c2ccc(Cl)c([N+](=O)[O-])c2)SC1=Nc1ccc(OC)cc1	-	-	-	.	93.6	.
CCCCCCC[N+](CC)(CC)CCCCc1ccc(Cl)cc1	-	-	-	-	75.6	-
O=C1c2ccccc2C(=O)N1CCOc1ccccc1Br	-	-	-	-	-	-
SMILES	MITF TRPM1 HTS	Yeast UUG start	Wnt act	PGC1a acetyl inh	TRPM1 prom inh	miR-122 sensor
O=C1c2ccccc2C(=O)N1CCOc1ccccc1Cl	85.6	-	-	-	-	-
C[C@H]1CN([C@@H](C)CO)C(=O)c2cc(NC(=O)NC3CCCCC3)ccc2O[C@H]1CN(C)S(C)(=O)=O	.	-	.	-	.	-
COc1ccc(NC(=O)c2cc(F)cc(F)c2)cc1Cl	.	-	56.3	.	-	-
O=C(Nc1ccc2c(c1)CCC2)c1cccc(F)c1	94.8	-	-	-	-	-
COc1ccc(NC(=O)c2c(F)c(F)c(F)c(F)c2F)cc1Cl	-	-	.	-	-	-
O=C(Cc1ccccc1F)Nc1ccc2c(c1)CCC2	129.0	-	-	.	-	.
O=C(Nc1ccc2c(c1)CCC2)c1cc(F)cc(F)c1	83.4	-	-	-	-	-
Cn1cnc(S(=O)(=O)N2C[C@H](O)COC[C@@H]3O[C@@H](CC(=O)NCc4ccc(F)cc4)CC[C@H]32)c1	.	-	.	-	.	-
Cc1cccc(N2CC(C(=O)NC3CCCCCC3)CC2=O)c1C (stereo unspecified)	-	-	368.4	-	-	-
Cc1ccccc1N1CC(C(=O)NC2CCCC2)CC1=O (stereo unspecified)	-	-	-	.	-	.
Cc1noc(C)c1S(=O)(=O)N(C)C[C@H]1OCCCC[C@@H](C)Oc2ccc(NS(C)(=O)=O)cc2C(=O)N([C@@H](C)CO)C[C@@H]1C	.	-	.	-	.	-
COc1ccc2nc3oc(C(=O)N4CCCCC4)cc3cc2c1	84.0	-	?	-	-	-
COc1ccc2cc3cc(C(=O)N4CCCC(C)C4)oc3nc2c1 (stereo unspecified)	-	-	32.3	-	-	-
Cc1ccc(CN2CCN(C3CCCC3)C(CCO)C2)s1 (stereo unspecified)	-	-	31.0	.	-	-
COc1ccc2nc(C)cc(Nc3ccc(N4CCN(C)CC4)cc3)c2c1	-	-	-	-	97.4	-
COc1ccc(/C=N/Nc2cc(C)nc3ccc(OC)cc23)c(OC)c1	.	-	-	.	84.7	.
COc1ccc2nc(C)cc(N/N=C/c3ccccc3)c2c1	-	-	.	-	98.9	-
CC(C)NC(=O)N(C)C[C@@H]1Oc2ccc(NS(C)(=O)=O)cc2C(=O)N([C@H](C)CO)C[C@H]1C	.	-	.	-	.	-
C[C@@H]1CN([C@H](C)CO)C(=O)Cc2cc(NC(=O)NC3CCCCC3)ccc2O[C@H]1CN(C)S(=O)(=O)c1ccc(F)cc1	.	-	.	-	.	-
C[C@H]1CCCCO[C@@H](CN(C)C(=O)Nc2ccc3c(c2)OCO3)[C@@H](C)CN([C@@H](C)CO)C(=O)c2cc(NC(=O)c3ccncc3)ccc2O1	.	-	.	-	.	-
CCCCSc1nc(CCC)cc(=O)[nH]1	.	-	.	-	-	-
CCCCSc1nc(C(=O)O)cc(=O)[nH]1	-	-	38.4	-	-	-
COc1ccc([C@@]23Oc4cc(OC)cc(OC)c4[C@]2(O)[C@H](O)[C@H](C(=O)N(C)C)[C@H]3c2ccccc2)cc1	-	.	-	.	66.2	.
Cc1noc(C)c1NC(=O)N(C)C[C@H]1Oc2c(NC(=O)Nc3ccc4c(c3)OCO4)cccc2C(=O)N([C@@H](C)CO)C[C@@H]1C	.	-	.	-	.	-
CC1CCC(C(C)C)C(OC(=O)CSc2nccc(=O)[nH]2)C1 (stereo unspecified)	-	-	.	-	-	-
COc1ccc(OCc2n(CC(=O)OC3CC(C)CCC3C(C)C)c3ccccc3[n+]2C)cc1 (stereo unspecified)	-	-	-	-	81.7	-
COc1ccc(-c2n(CC(=O)OC3CC(C)CCC3C(C)C)c3ccccc3[n+]2C)cc1 (stereo unspecified)	-	.	-	.	91.0	.
CCOC(=O)c1cc(-c2ccc(N)cc2)sc1N	-	-	.	-	-	-
CCOC(=O)c1sc(-c2ccc(Br)cc2)cc1N	114.2	-	?	-	-	-
